System: H4K5acK8ac nucleosomes
Assay: ITC, nucleosome binding
Set-up: species or system human
Settings: not given

Substance | Reduction of nucleosome-binding affinity by mutation, compared with WT N-BRDT(1) [fold]
N-BRDT(1)-KS2: N-BRDT(1) single point mutation of the central lysine (K41S) | ~3.5

System: 167 bp Widom DNA
Assay: EMSA, DNA binding
Settings: 167 bp DNA, 30 min, 4 °C, pH 7.5, ethidium bromide

Substance | Interaction with DNA
BRD2-BD1: codon-optimized BRD2(1) (aas 48–184) | do
BRD2-BD2: BRD2(2) (aas 348–455) | do
BRD3-BD1: BRD3(1) (aas 24–144) | does not interact with DNA
BRD3-BD2: BRD3(2) (aas 306–416) | do
N-BRDT(1)-3KS: N-BRDT(1) triple mutant, lysines K37, K41 and K45 to serine | abolished DNA binding
N-BRDT(1)-KS2: N-BRDT(1) single point mutation of the central lysine (K41S) | most pronounced effect

— paper PMC5187433, “A bromodomain–DNA interaction facilitates acetylation-dependent bivalent nucleosome recognition by the BET protein BRDT” (Nature Communications, 2016)
